Experimental data: patent US20260382605A1, “REVERSIBLE MACROCYCLIC KINASE INHIBITORS” (published 2026)

Protein sequences, listed by entry. Tags and fused reporters are not part of them. Residues count along the entry.
UniProt P07949, 29-1114 limits assumed: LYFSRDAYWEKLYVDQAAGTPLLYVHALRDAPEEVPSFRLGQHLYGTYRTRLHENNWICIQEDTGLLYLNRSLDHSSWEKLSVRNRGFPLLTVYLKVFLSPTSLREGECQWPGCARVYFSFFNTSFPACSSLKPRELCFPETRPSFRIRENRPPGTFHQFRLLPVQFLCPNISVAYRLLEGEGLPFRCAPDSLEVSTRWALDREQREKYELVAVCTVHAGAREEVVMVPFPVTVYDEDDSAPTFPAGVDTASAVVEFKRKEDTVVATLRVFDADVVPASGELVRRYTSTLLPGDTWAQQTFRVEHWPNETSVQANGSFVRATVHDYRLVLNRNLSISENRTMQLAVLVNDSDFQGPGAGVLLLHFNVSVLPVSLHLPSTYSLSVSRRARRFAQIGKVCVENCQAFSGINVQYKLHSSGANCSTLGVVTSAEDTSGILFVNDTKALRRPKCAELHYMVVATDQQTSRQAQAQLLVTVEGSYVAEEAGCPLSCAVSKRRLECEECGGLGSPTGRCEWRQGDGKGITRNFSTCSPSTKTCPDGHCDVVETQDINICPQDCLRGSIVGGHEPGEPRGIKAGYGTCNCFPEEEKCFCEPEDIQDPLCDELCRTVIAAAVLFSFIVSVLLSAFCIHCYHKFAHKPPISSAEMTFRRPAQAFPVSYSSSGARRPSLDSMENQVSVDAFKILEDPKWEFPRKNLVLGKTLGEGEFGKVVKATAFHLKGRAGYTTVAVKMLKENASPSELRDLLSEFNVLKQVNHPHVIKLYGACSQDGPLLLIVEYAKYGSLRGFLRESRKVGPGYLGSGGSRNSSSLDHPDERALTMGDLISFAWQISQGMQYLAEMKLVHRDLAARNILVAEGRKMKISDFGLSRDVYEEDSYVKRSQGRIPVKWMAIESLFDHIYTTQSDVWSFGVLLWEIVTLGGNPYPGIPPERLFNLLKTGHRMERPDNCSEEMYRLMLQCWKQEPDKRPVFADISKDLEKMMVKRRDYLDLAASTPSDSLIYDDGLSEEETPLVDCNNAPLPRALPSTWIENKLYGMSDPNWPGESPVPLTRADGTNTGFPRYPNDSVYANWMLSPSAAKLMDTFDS
UniProt P30530, 26-894 limits assumed: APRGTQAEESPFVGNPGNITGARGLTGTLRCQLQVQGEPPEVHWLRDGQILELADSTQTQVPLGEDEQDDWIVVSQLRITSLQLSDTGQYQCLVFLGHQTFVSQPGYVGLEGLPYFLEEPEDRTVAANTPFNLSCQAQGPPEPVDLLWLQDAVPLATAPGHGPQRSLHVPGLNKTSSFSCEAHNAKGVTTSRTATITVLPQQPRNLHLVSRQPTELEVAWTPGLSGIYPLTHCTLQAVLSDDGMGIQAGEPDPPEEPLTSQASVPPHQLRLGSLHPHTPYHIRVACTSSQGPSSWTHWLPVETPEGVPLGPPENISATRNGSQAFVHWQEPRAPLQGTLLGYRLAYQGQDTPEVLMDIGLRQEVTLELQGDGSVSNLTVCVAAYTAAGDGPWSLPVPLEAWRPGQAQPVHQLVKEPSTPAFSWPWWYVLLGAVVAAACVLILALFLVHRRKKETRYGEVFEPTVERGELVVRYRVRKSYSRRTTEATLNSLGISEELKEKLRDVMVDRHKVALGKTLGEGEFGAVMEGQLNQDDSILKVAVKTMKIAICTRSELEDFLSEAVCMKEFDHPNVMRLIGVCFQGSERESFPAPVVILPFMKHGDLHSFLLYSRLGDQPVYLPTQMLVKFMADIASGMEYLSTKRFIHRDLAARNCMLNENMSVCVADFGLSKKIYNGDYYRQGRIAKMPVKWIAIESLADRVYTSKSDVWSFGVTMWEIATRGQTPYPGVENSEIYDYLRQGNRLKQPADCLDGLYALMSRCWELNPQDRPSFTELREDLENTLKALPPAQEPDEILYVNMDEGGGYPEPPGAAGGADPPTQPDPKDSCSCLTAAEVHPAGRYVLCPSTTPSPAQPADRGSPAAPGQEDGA
UniProt P08581, 25-1390 limits assumed: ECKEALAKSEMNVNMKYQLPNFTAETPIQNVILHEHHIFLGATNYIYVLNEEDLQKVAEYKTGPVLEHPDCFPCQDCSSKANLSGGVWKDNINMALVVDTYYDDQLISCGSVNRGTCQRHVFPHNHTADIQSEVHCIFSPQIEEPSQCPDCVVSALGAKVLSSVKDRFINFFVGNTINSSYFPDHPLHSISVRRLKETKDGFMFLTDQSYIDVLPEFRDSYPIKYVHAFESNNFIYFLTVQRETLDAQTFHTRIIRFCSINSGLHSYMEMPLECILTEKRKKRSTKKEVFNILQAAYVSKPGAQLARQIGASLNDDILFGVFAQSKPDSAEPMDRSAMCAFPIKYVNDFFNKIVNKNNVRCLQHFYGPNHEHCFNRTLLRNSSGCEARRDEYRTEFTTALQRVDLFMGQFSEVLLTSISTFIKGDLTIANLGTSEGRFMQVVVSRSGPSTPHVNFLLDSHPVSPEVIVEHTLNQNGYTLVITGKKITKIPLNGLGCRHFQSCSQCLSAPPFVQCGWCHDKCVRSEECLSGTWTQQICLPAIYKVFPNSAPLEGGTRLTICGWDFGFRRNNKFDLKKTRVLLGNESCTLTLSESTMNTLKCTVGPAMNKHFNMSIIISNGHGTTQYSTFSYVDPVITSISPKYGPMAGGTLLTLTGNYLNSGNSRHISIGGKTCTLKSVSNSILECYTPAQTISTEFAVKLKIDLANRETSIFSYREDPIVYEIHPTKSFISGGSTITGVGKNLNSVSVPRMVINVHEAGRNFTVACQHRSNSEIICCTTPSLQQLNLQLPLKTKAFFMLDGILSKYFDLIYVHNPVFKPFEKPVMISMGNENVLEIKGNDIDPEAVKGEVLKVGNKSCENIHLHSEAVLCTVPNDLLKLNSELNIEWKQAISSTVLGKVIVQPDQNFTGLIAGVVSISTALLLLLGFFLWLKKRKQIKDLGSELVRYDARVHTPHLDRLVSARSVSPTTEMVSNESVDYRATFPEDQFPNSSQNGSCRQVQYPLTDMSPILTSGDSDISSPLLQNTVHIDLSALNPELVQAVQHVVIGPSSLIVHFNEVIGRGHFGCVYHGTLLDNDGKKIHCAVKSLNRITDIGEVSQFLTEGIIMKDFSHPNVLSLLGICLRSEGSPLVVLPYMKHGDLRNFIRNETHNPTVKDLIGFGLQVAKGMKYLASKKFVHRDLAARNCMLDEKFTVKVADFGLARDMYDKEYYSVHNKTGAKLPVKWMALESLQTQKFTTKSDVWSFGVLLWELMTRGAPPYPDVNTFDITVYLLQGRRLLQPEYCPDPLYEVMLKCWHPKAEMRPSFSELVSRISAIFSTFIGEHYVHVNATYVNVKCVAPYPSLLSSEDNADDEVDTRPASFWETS
UniProt P00533, 25-1210 limits assumed: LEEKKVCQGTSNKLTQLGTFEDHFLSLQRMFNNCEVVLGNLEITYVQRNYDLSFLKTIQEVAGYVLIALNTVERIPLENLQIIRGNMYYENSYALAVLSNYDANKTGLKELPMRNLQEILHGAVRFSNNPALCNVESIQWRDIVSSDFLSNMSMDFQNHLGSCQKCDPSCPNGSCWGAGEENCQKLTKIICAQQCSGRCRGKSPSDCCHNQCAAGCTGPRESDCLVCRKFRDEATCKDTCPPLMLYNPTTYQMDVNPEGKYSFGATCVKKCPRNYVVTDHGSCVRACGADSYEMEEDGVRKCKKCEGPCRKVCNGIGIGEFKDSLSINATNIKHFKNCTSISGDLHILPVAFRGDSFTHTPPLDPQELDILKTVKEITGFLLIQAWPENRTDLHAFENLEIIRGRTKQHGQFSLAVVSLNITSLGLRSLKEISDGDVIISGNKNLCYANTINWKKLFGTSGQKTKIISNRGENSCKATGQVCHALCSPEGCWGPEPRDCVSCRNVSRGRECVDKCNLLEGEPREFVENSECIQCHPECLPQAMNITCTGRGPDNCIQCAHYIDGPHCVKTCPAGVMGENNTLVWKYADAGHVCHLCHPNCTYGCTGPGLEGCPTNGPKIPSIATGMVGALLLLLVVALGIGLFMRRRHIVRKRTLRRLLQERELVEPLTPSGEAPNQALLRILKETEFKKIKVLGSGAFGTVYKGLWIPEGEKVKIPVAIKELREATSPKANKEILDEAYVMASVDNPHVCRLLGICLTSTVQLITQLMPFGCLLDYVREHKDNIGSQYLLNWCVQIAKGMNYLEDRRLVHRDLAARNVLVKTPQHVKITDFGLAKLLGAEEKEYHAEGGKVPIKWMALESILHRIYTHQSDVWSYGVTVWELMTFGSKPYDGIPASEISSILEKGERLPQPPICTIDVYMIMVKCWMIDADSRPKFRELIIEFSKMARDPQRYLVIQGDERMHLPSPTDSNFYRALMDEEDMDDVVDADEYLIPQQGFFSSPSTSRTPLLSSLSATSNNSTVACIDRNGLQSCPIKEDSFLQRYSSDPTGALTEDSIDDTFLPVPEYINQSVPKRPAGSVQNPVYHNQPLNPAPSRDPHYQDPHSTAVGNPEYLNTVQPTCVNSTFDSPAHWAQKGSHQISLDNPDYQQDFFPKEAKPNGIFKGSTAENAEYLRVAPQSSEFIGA
UniProt P12931, whole entry: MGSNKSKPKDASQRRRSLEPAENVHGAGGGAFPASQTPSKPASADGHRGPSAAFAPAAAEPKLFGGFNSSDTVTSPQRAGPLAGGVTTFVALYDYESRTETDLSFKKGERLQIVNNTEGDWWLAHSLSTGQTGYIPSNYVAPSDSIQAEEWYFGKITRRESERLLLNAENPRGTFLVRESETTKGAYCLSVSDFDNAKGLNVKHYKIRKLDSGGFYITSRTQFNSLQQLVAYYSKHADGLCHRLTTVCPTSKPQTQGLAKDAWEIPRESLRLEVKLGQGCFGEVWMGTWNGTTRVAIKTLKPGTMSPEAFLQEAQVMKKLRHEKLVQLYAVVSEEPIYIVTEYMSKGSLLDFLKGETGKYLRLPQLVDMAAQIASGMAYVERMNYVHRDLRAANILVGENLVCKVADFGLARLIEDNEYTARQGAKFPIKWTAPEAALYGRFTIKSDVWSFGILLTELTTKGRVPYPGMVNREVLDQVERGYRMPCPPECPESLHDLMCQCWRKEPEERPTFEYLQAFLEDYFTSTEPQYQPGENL
UniProt P07947, whole entry: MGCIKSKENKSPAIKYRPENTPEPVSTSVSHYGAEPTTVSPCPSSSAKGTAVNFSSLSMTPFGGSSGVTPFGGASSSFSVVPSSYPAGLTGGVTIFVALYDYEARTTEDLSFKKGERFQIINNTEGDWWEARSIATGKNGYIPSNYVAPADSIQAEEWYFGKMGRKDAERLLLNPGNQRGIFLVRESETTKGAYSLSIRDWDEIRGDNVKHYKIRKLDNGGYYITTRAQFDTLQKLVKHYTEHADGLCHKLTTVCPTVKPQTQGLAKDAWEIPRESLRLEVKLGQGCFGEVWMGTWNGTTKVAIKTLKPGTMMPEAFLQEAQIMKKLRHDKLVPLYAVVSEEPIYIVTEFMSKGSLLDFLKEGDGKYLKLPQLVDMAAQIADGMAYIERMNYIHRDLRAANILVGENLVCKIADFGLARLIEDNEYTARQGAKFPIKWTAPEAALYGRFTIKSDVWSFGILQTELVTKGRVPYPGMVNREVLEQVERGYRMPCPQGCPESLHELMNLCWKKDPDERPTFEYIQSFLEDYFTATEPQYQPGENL
UniProt P06239, whole entry: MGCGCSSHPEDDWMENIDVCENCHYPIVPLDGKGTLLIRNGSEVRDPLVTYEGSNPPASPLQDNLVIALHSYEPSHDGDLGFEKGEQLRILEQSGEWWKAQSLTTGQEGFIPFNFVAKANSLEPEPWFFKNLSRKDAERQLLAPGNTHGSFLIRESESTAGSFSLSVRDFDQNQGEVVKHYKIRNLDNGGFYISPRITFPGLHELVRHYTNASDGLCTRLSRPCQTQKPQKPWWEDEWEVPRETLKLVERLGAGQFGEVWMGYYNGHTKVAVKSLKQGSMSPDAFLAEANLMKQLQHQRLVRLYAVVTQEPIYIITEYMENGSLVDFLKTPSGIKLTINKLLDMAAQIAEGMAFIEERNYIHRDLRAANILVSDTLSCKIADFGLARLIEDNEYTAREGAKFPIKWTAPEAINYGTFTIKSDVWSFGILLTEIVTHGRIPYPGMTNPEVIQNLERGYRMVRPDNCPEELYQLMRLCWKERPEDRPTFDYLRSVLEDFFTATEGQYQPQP

Assays:
RET [1] = target: T1, RET (Homo sapiens, UniProt P07949); assay: Binding kinetics assay (surface plasmon resonance) RET; settings: SPR, 22 °C
Description: (§1) Binding Kinetics Assay wt-BTK, BTK C481S, LCK, FGFR1, FLT3, PDGFR-β, FMS, LYN, MEK1, AUR-B. ITK. VEGFR, EGFR, FGFR3, AXL, c-MET, SRC, YES, ABL, RET and IGFR1 (Surface Plasmon Resonance)
(§2) Streptavidin-coated chips (Cat. No. BR100531), disposables and maintenance kits for Biacore were purchased from Cytiva (Eindhoven, The Netherlands). Biotinylated wt-BTK enzym (Carna Biosciences, cat. no. 08-480-20N), BTK C481S (Carna Biosciences, cat. no. 08-417-20N), LCK (Carna Biosciences, cat. no. 08-470-20N), FGFR1 (Carna Biosciences, cat. no. 08-435-20N), FLT3 (Carna Biosciences, cat. no. 08-454-20N), PDGFR-β (Carna Biosciences, cat. no. 08-458-20N), FMS (Carna Biosciences, cat. no. 08-455-20N), LYN (Carna Biosciences, cat. no. 08-471-20N), MEK1 (Carna Biosciences, cat. no. 07-441-10-20N), AUR-B (Carna Biosciences, cat. no. 05-402-21N), ITK (Carna Biosciences, cat. no. 08-481-20N), VEGFR (Carna Biosciences, cat. no. 08-491-20N), EGFR (Carna Biosciences, cat. no. 08-415-20N), FGFR3 (Carna Biosciences, cat. no. 08-433-20N), AXL (Carna Biosciences, cat. no. 08-407-20N), c-MET (Carna Biosciences, cat. no. 08-451-20N), SRC (Carna Biosciences, cat. no. 08-473-20N), YES (Carna Biosciences, cat. no. 08-475-20N), ABL (Carna Biosciences, cat. no. 08-401-20N), RET (Carna Biosciences, cat. no. 08-459-20N) or IGFR1 (Carna Biosciences, cat. no. 08-441-20N) were immobilized on a streptavidin-coated chip to a level of about 8000 resonance units (RU) using Biacore buffer (50 mM Tris pH 7.5, 0.05% (v/v) Tween-20, 150 mM NaCl and 5 mM MgCl2)+1 mM TCEP. Remaining streptavidin was blocked with biocytin. Immobilization was performed at 4 °C. Subsequent assay steps were conducted at 22 °C. After changing buffer to Biacore buffer with 1% (v/v) dimethylsulfoxide (DMSO), a pre-run was performed for a period of at least 30 min at a flow rate of 30 μl/min to obtain a stable surface. The kinetic constants of the compounds were determined with single cycle kinetics with five consecutive injections with an increasing compound concentration with ranges of 3.16-316 nM. Experiments were performed with an association time of 100 s per concentration and a dissociation time of 1200 s, except for compounds with a long target residence time, such as irreversible inhibitors, where dissociation time was increased. To circumvent problems of mass transport limitation, a flow rate of 30 μl/min was used. A blank run with the same conditions was performed before the compound was injected. The SPR sensorgrams were analyzed with Biacore Evaluation Software by using a method of double referencing. First the reference channel was subtracted from the channel containing immobilized protein. Subsequently, the reference curve obtained with buffer injections was subtracted. The resulting curve was fitted with a 1:1 binding model. Compounds that bound according to an induced fit model were fitted with a two-state reaction model. The kinetic constants (ka, ka, KD) of duplicates were geometrically averaged. Target residence time (τ) for the 1:1 binding model was calculated from the dissociation constant kd with the formula T=1/kd. Target residence for an induced fit model was calculated as described (Tummino and Copeland, 2008).

RET [2] = target: T1, RET; assay: Biochemical kinase assay RET (33P-ATP filter binding); settings: read-out: IC50 value; RET 2 nM, 10 μM ATP, 20 min pre-incubation, 120 min reaction
Protocol: Biochemical Kinase Assay RET
The kinase activity of RET was assayed at Reaction Biology Corporation. The substrate in the RET reaction, TRK-C derived peptide (Genscript, Cat. #U4552FL280_1), was prepared in fresh reaction buffer (20 mM HEPES (pH 7.5), 10 mM MgCl2, 1 mM EGTA, 0.01% Brij35, 0.02 mg/mL BSA, 0.1 mM Na3VO4, 2 mM DTT, 1% DMSO). RET (Invitrogen, Cat. #PV3819) was delivered into the substrate solution and mixed gently. The final concentrations of RET and the substrate in the reaction were 2 nM and 20 μM respectively. Compounds were tested in 10-point concentration/response mode with 3-fold serial dilution steps starting at 10 μM.
Compounds in 100% DMSO were delivered into the kinase reaction mixture by acoustic liquid delivery technology (ECHO550; nanoliter range) and incubated for 20 min at room temperature. 10 μM [^33P]-ATP (ATP: Sigma, Cat #: A7699; [^33P]-ATP: Hartmann Analytic, Cat #: SCF-301-12) was delivered into the reaction mixture to initiate the reaction. The mixture was incubated for 120 min at room temperature. Radioactivity was detected utilizing a proprietary filter-binding method. Kinase activity data were expressed as the percent remaining activity in test samples compared to vehicle (DMSO) reactions. IC50 values and curve fits were obtained using Prism4Software (GraphPad).

[3] = tested on: KG-1 acute myeloid leukemia cells; assay: Cell proliferation assay KG-1; settings: read-out: IC50 value, KG-1 cells, 72 hours
Protocol: KG-1 acute myeloid leukemia cells were purchased from American Type Culture Collection (cat. no. CCL-246, ATCC). Frozen stocks were thawed and cells were diluted in IMDM cell culture medium (cat. no. 31980022, Life Technologies), supplemented with 20% (v/v) fetal calf serum and 1% penicillin/streptavidin. 3200 cells per well (in 45 μl) were seeded in a white 384-well culture plate (cat. no. 781080, Greiner Bio-One) and allowed to rest for 24 hours at 37 °C, 95% humidity, and 5% CO2. 5 μl compound solution was added to the cells and incubation was continued for 72 hours (3 days), followed by addition of 24 μl ATPlite 1Step™ (PerkinElmer, Groningen, The Netherlands) solution was added to each well. Luminescence was recorded on an Envision multimode reader. The cell signal at the start of incubation was recorded separately in order to distinguish between cell population growth and cell death. In addition, maximum growth was determined by incubation of a duplicate without compound in the presence of 0.3% DMSO. Percentage growth was used as the main y-axis signal.
IC50s were fitted by non-linear regression using IDBS XLfit™5 using a 4-parameter logistic curve, yielding a maximum signal, minimum signal, hill-parameter and IC50.

AXL = AXL (Homo sapiens, UniProt P30530); assay: Binding kinetics assay (surface plasmon resonance) AXL; settings: SPR, 22 °C
Description: as §1, §2

c-Met = c-Met (Homo sapiens, UniProt P08581); assay: Binding kinetics assay (surface plasmon resonance) c-MET; settings: SPR, 22 °C
Description: as §1
as §2, with “First the reference channel was subtracted from the channel containing immobilized protein. Subsequently, the reference curve obtained with buffer injections was subtracted. The resulting curve was fitted with a 1:1 binding model. Compounds that bound according to an induced fit model were fitted with a two-state reaction model. The kinetic constants (ka, ka, KD) of duplicates were geometrically averaged.” left out

EGFR = EGFR (Homo sapiens, UniProt P00533); assay: Binding kinetics assay (surface plasmon resonance) EGFR; settings: SPR, 22 °C
Description: as §1, §2

SRC = SRC (Homo sapiens, UniProt P12931); assay: Binding kinetics assay (surface plasmon resonance) SRC; settings: SPR, 22 °C
Description: as §1, §2

YES = YES (Homo sapiens, UniProt P07947); assay: Binding kinetics assay (surface plasmon resonance) YES; settings: SPR, 22 °C
Description: as §1, §2

LCK = LCK (Homo sapiens, UniProt P06239); assay: Binding kinetics assay (surface plasmon resonance) LCK; settings: SPR, 22 °C
Description: as §1, §2

[4] = tested on: CCRF-HSB-2 T acute lymphoblastic leukemia cells; assay: Cell proliferation assay CCRF-HSB-2; settings: read-out: IC50 value, CCRF-HSB-2 cells, 72 hours
Protocol: (§3) CCRF-HSB-2 T acute lymphoblastic leukemia cells were purchased from Deutsche Sammlung von Mikroorganismen und Zellkulturen (cat. no. ACC 435, DSMZ). Frozen stocks were thawed and cells were diluted in RPMI-1640 cell culture medium (cat. no. 61870036, Life Technologies), supplemented with 10% (v/v) bovine calf serum and 1% penicillin/streptavidin. 3200 cells per well (in 45 μl) were seeded in a white 384-well culture plate (cat. no. 781080, Greiner Bio-One) and allowed to rest for 24 hours at 37 °C, 95% humidity, and 5% CO2. 5 μl compound solution was added to the cells and incubation was continued for 72 hours (3 days), followed by addition of 24 μl ATPlite 1Step™ (PerkinElmer, Groningen, The Netherlands) solution was added to each well. Luminescence was recorded on an Envision multimode reader. The cell signal at the start of incubation was recorded separately in order to distinguish between cell population growth and cell death. In addition, maximum growth was determined by incubation of a duplicate without compound in the presence of 0.3% DMSO. Percentage growth was used as the main y-axis signal. IC50s were fitted by non-linear regression using IDBS XLfit™5 using a 4-parameter logistic curve, yielding a maximum signal, minimum signal, hill-parameter and IC50.

[5] = tested on: CTV-1 T acute lymphoblastic leukemia cells; assay: Cell proliferation assay CTV-1; settings: read-out: IC50 value, CTV-1 cells, 72 hours
Protocol: as §3, with “CTV-1” for “CCRF-HSB-2”, “40,” for “435,”, “1600” for “3200”

Row | SMILES | Kd (RET [1]) [nM] | IC50 (RET [2]) [nM] | IC50 [3] [nM] | Kd (LCK) [nM] | Target residence time Tau (τ) (LCK) | IC50 [4] [nM] | IC50 [5] [nM] | further results
1 | Nc1ncc2n3c(nc(-c4cnc5[nH]ccc5c4)c13)[C@@H]1CC[C@H](C1)NC(=O)CCOCC/C=C/2 | < 5 | < 5 | < 300 |  |  |  |  | 
2 | C[C@@H]1CCn2nc(-c3ccc(OCc4cccc(F)c4)c(Cl)c3)c3c(N)ncc(c32)/C=C/CCCCCC(=O)N1 |  |  |  |  |  |  |  | Kd (AXL): < 5 nM; Kd (c-Met): 50 to 500 nM; Target residence time Tau (τ) (c-Met): A (τ between 0.2 h and 1 h); Kd (EGFR): 5 to 50 nM; Target residence time Tau (τ) (EGFR): A (τ between 0.2 h and 1 h)
3 | Nc1ncc2c3c1c(-c1cnc4[nH]ccc4c1)nn3[C@@H]1CCCN(C1)C(=O)CCCCCC/C=C/2 | < 5 | < 5 | < 300 |  |  |  |  | Target residence time Tau (τ) (RET [1]): A (τ between 0.2 h and 1 h); Kd (SRC): 5 to 50 nM; Target residence time Tau (τ) (SRC): A (τ between 0.2 h and 1 h); Kd (YES): 5 to 50 nM; Target residence time Tau (τ) (YES): B (τ between 1 and 3 h)
4 | COc1cc(-c2nn3c4c(cnc(N)c24)/C=C/CCCCCC(=O)N[C@H](C)CC3)ccc1NC(=O)c1cc2c(OC)cccc2n1C |  |  |  | < 5 | C (τ 3 h) | < 50 | < 50 | 
5 | C[C@@H]1CCn2nc(-c3ccc(NC(=O)c4cccn(-c5ccc(F)cc5)c4=O)cc3F)c3c(N)ncc(c32)/C=C/CCOCCC(=O)N1 |  |  |  |  |  |  |  | Kd (c-Met): < 5 nM; Target residence time Tau (τ) (c-Met): B (τ between 1 and 3 h)
6 | Nc1ncc2n3c(nc(-c4cnc5[nH]ccc5c4)c13)[C@@H]1CCC[C@H](C1)NC(=O)CCOCC/C=C/2 | < 5 | < 5 | < 300 |  |  |  |  | Target residence time Tau (τ) (RET [1]): A (τ between 0.2 h and 1 h)
7 | COc1cc(-c2nn3c4c(cnc(N)c24)/C=C/CCCCCCC(=O)N2CCC[C@@H]3C2)ccc1NC(=O)c1cc2c(OC)cccc2n1C |  |  |  | < 5 | B (τ between 1 and 3 h) | < 50 | < 50 | 
8 | COc1cc(-c2nn3c4c(cnc(N)c24)/C=C/CCOCCC(=O)N[C@H](C)CC3)ccc1NC(=O)c1cc2c(OC)cccc2n1C |  |  |  | < 5 | C (τ 3 h) | < 50 | < 50 | 
